For the assay, the system named is R6/1 mice. Conditions: oral in drinking water from 3 weeks of age, open field at 13 weeks, rotarod at 18 weeks, biotin 10 mg/kg/day or thiamine 200 mg/kg/day, given separately, FIG. 6A-B.

On to `O=C(O)CCCC[C@@H]1SC[C@@H]2NC(=O)N[C@@H]21` [biotin], for which the “effect on hypoactivity (open field, distance covered) and motor coordination deficit (rotarod, time to fall)” value was “only showed improving trends in some of the behavioural tests”.

(Values after patent US12616680B2, “Combined use of biotin and thiamine in the treatment of huntington's disease” (CONSEJO SUPERIOR DE INVESTIGACIONES CIENTÍFICAS (CSIC), priority 2019, dated 2026).)
